We go through 1 compound from patent US20080312263A1, “PHARMACEUTICAL COMPOSITIONS FOR THE PREVENTION AND TREATMENT OF ATHEROSCLEROSIS” (UNIVERSITE RENE DESCARTES-PARIS 5, priority 2004, published 2008).

This assay relates to Watanabe rabbits. Nature of the assay: Macroscopic study of the aortas: surface area of the lesions by planimetry. It counts as in vivo, rabbit. The following applies: T8, versus the control, FIG. 10. As for the experimental part: After eight weeks, a sampling of serum (about 1 ml) is carried out then the animals are anaesthetized with an injection of heparinized pentobarbital, and finally sacrificed.
On the day of sacrifice, after anaesthesia, in the shortest possible time, the animal is opened along the whole length of the cervico-thoracic region. The aorta is incised as low as possible. Using curved scissors, the aorta is removed from the aortic arch as far as the level of the iliac bifurcation following the vertebral column. The aorta is first cleaned in physiological serum and the fatty tissues are removed from its external tunica. It is fixed for 20 minutes in a 2% paraformaldehyde-2% glutaraldehyde mixture then opened along its length. It is then again immersed in the same fixer for 24 hours, after which the aorta is rinsed in 70% ethanol, then stained with Soudan IV for 15 minutes. It is once again rinsed in 80% ethanol for 20 minutes then under running water for 1 hour (22). […] The images are analyzed by means of planimetry software (Scion Image) which makes it possible to determine the surface of the lesions. Finally the aorta is fixed in the same fixer with a view to microscopic study.

Each structure is given as a SMILES string.

As to `CC(C)c1c(C(=O)Nc2ccccc2)c(-c2ccccc2)c(-c2ccc(F)cc2)n1CC[C@@H](O)C[C@@H](O)CC(=O)O` [atorvastatin, Atorvastatin], the “surface area of the lesions (whole aorta)” value was “unchanged”. Moreover, under “listed as statin alone”, the “surface area of the lesions (whole aorta)” value is recorded as “no difference”.
